Measurements published in US20250195530A1, “POLQ INHIBITORS” (ASTRAZENECA AB, priority 2022, published 2025).

By UniProt entry, the sequences of proteins in these tests, tags left out. Residues count along the entry.
UniProt O75417, 1780-2590: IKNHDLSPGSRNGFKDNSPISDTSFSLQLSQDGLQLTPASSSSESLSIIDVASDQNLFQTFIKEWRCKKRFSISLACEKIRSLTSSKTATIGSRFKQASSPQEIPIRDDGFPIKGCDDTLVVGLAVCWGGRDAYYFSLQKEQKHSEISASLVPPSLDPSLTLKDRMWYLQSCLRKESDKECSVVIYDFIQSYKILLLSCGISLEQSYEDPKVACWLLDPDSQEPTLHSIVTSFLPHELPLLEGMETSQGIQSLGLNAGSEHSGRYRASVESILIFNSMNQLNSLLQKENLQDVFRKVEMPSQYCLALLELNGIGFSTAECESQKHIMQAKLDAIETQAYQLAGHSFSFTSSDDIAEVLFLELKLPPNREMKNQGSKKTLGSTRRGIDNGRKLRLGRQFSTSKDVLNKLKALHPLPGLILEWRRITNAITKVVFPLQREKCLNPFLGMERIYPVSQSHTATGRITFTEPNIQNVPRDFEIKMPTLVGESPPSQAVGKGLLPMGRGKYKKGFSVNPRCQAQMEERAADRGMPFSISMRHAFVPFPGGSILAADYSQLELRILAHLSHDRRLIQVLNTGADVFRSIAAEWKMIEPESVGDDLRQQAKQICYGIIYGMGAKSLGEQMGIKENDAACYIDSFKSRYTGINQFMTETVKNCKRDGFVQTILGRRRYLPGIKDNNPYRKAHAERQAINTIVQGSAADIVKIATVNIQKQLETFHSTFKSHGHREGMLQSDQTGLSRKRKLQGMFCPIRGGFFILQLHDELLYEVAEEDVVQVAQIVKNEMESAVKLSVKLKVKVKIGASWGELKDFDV

Target: isolated polymerase domain (I1780-V2590) of DNA polymerase theta (Polθ) (Homo sapiens (Human), UniProt O75417)
Assay: biochemical

| SMILES | IC50 [nM] |
| --- | --- |
| Cc1cc(OCCN2CCNCC2)ccc1-c1nc2c(OC3(C)CC3)ncnc2n1Cc1cc(Cl)ccn1 [Example T529, 9-((4-chloropyridin-2-yl)methyl)-8-(2-methyl-4-(2-(piperazin-1-yl)ethoxy)phenyl)-6-(1-methylcyclopropoxy)-9H-purine] | 7.94 |
| Cc1ccnc(Cn2c(-c3ccc(O[C@H]4CCNC4=O)cc3Cl)nc3c(OC4(C)CC4)ncnc32)c1 [Example T185, (S)-3-(3-chloro-4-(6-(1-methylcyclopropoxy)-9-((4-methylpyridin-2-yl)methyl)-9H-purin-8-yl)phenoxy)pyrrolidin-2-one] | 5.01 |
| Cc1ccnc(Cn2c(-c3ccc(O[C@H]4CCN(C(=O)[C@@H](C)O)C4)cc3Cl)nc3c(OC4(C)CC4)ncnc32)c1 [Example T584, (R)-1-((S)-3-(3-chloro-4-(6-(1-methylcyclopropoxy)-9-((4-methylpyridin-2-yl)methyl)-9H-purin-8-yl)phenoxy)pyrrolidin-1-yl)-2-hydroxypropan-1-one] | 7.94 |
| CN1CCCC(Oc2ccc(-c3nc4c(OC5(C)CC5)ncnc4n3Cc3ccccc3)c(Cl)c2)CC1 (single isomer, unassigned) [Example D14, 9-benzyl-8-(2-chloro-4-((1-methylazepan-4-yl)oxy)phenyl)-6-(1-methylcyclopropoxy)-9H-purine] | 2 |
| Cc1ccnc(Cn2c(-c3cccc(OCCN4CC(O)C4)c3Cl)nc3c(OC4(C)CC4)ncnc32)c1 [Example T360, 1-(2-(2-chloro-3-(6-(1-methylcyclopropoxy)-9-((4-methylpyridin-2-yl)methyl)-9H-purin-8-yl)phenoxy)ethyl)azetidin-3-ol] | 7.94 |
| CC1(Oc2ncnc3c2nc(-c2ccc(OCCc4nn[nH]n4)cc2Cl)n3Cc2cccc(Cl)c2)CC1 [Example T92, 8-(4-(2-(2H-tetrazol-5-yl)ethoxy)-2-chlorophenyl)-9-(3-chlorobenzyl)-6-(1-methylcyclopropoxy)-9H-purine] | 7.94 |
| Cc1ccnc(Cn2c(-c3ccc(C(=O)NC(C)(C)CO)cc3Cl)nc3c(OC4(C)CC4)ncnc32)c1 [Example T362, 3-chloro-N-(1-hydroxy-2-methylpropan-2-yl)-4-(6-(1-methylcyclopropoxy)-9-((4-methylpyridin-2-yl)methyl)-9H-purin-8-yl)benzamide] | 12.6 |
| CC(=O)N1CC[C@@H](Oc2ccc(-c3nc4c(OC5(C)CC5)ncnc4n3Cc3cc(C)ccn3)c(Cl)c2)C1 [Example T472, (R)-1-(3-(3-chloro-4-(6-(1-methylcyclopropoxy)-9-((4-methylpyridin-2-yl)methyl)-9H-purin-8-yl)phenoxy)pyrrolidin-1-yl)ethan-1-one] | 7.94 |
| Cc1ccnc(Cn2c(-c3ccc(OCCN4CCNCC4)cc3Cl)nc3c(OC(C)(C)C)cccc32)c1 [Example T609, 4-(tert-butoxy)-2-(2-chloro-4-(2-(piperazin-1-yl)ethoxy)phenyl)-1-((4-methylpyridin-2-yl)methyl)-1H-benzo[d]imidazole] | 3.98 |
| Cc1ccnc(Cn2c(-c3ccc(OCC(N)=O)cc3Cl)nc3c(OC4(C)CC4)ncnc32)c1 [Example T61, 2-(3-chloro-4-(6-(1-methylcyclopropoxy)-9-((4-methylpyridin-2-yl)methyl)-9H-purin-8-yl)phenoxy)acetamide] | 6.31 |
| Cc1cc(Cn2c(-c3ccc(OCCN4CCNCC4)cc3Cl)nc3c(OC4(C)CC4)ncnc32)ccn1 [Example T531, 8-(2-chloro-4-(2-(piperazin-1-yl)ethoxy)phenyl)-6-(1-methylcyclopropoxy)-9-((2-methylpyridin-4-yl)methyl)-9H-purine] | 126 |
| Cc1ccnc(Cn2c(-c3ccc(OC4CC5(COC5)C4)cc3Cl)nc3c(OC4(C)CC4)ncnc32)c1 [Example T426, 8-(4-((2-oxaspiro[3.3]heptan-6-yl)oxy)-2-chlorophenyl)-6-(1-methylcyclopropoxy)-9-((4-methylpyridin-2-yl)methyl)-9H-purine] | 7.94 |
